This passage reports Kd results from ChEMBL document CHEMBL1156118, “Evaluation of substituted 6-arylquinazolin-4-amines as potent and selective inhibitors of cdc2-like kinases (Clk)” (Bioorg Med Chem Lett, 2009).

Sequences of proteins named here, by UniProt entry; tags and fusion partners are left off. A change or cut given only in a name is not applied to a line headed by its entry.
UniProt P49761: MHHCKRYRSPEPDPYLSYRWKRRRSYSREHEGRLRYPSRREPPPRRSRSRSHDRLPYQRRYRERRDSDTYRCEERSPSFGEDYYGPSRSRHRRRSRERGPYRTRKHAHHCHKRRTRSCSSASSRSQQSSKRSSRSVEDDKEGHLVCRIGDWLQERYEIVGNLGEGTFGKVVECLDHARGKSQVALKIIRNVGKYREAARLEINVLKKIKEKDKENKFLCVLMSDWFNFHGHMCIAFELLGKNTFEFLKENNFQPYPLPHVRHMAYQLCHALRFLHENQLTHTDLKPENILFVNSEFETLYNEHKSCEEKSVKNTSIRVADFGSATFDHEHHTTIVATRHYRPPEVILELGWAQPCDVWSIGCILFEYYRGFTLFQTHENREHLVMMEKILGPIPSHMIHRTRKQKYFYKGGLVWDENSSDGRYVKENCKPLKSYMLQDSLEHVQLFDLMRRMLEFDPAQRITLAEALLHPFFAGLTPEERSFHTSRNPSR
UniProt P48730: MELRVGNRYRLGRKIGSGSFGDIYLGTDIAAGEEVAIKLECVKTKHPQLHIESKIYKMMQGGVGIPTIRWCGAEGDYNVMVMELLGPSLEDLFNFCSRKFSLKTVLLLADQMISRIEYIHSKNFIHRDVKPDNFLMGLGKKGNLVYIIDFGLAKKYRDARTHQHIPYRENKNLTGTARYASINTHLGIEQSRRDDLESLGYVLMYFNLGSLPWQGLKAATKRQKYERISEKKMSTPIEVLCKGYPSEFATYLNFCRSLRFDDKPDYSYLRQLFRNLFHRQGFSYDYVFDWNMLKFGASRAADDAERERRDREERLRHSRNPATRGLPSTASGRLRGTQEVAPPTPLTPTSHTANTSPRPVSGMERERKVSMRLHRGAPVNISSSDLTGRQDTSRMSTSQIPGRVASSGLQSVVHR
UniProt P49674: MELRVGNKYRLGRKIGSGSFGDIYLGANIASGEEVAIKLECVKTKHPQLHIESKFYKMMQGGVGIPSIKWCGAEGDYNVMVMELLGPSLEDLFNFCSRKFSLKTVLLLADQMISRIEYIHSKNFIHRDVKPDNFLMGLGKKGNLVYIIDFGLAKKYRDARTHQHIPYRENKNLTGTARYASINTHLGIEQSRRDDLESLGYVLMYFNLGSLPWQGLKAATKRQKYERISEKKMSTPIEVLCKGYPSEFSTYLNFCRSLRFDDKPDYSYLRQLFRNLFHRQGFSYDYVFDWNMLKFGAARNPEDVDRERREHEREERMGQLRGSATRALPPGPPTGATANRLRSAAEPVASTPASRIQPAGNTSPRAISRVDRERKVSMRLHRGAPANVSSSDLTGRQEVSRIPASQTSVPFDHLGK
UniProt Q9HAZ1: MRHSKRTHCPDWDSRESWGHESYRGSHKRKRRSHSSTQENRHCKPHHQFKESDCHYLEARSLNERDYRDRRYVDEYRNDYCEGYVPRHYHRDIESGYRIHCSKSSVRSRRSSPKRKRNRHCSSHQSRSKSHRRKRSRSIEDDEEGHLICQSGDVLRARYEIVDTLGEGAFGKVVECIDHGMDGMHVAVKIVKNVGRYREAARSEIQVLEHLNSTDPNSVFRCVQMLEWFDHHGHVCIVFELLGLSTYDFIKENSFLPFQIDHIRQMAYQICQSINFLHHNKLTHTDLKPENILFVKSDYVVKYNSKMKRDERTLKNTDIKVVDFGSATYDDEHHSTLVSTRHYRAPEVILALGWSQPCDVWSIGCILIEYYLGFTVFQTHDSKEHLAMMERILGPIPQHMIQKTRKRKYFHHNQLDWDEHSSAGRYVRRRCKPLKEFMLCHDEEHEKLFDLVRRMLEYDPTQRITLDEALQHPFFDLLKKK

Assay [1] concerns the target Dual specificity protein kinase CLK3 (Homo sapiens, UniProt P49761). The experiment in a line: Binding affinity to Clk3 assessed as dissociation constant.
For assay [2], the target named is Casein kinase I isoform delta (Homo sapiens, UniProt P48730). The experiment in a line: Binding affinity to CSNK1D assessed as dissociation constant.
Assay [3] has as its target Dual specificity tyrosine-phosphorylation-regulated kinase 1A (Homo sapiens, UniProt Q13627). The assay can be described thus: Binding affinity to Dyrk1A assessed as dissociation constant.
Assay [4] has as its target Casein kinase I isoform epsilon (Homo sapiens, UniProt P49674). The assay can be described thus: Binding affinity to CSNK1E assessed as dissociation constant.
Assay [5] concerns the target Dual specificity protein kinase CLK4 (Homo sapiens, UniProt Q9HAZ1). The assay can be described thus: Binding affinity to Clk4 assessed as dissociation constant.

In general, Kd refers to a measure of binding affinity in units of concentration. Turning to `CCN1/C(=C/C(C)=O)Sc2ccc(OC)cc21`, the Kd was 3000 nM in assay [1]; 150 nM in assay [2]; 12 nM in assay [3]; 300 nM in assay [4]; 30 nM in assay [5].
